From publication PMC6504641 (Chembiochem : a European journal of chemical biology, 2018) come the findings set out here.

Amino acid sequences for entries named in this document (tags omitted).
UniProt P15056, whole entry: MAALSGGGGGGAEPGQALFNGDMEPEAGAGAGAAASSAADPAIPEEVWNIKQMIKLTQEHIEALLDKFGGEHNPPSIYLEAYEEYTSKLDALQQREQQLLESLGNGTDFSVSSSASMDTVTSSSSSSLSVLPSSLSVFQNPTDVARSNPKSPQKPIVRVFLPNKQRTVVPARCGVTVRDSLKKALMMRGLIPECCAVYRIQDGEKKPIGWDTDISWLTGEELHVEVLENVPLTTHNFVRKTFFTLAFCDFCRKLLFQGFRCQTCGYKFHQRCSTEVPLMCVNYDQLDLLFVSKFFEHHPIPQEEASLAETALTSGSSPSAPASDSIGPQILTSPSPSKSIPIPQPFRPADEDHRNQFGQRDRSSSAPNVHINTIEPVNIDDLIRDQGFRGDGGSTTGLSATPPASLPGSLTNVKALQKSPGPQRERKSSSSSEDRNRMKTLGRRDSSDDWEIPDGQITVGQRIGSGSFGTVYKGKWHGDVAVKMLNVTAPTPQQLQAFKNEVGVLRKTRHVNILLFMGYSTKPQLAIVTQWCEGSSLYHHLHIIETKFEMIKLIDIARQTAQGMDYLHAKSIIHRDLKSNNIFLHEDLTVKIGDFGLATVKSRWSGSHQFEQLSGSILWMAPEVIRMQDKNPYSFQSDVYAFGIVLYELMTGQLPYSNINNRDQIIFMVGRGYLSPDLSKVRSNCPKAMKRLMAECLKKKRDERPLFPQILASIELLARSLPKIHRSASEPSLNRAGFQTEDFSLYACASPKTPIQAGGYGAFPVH

This experiment addresses BRAF (Homo sapiens, UniProt P15056). Nature of the experiment: ELISA kinase assay, phospho-MEK1 readout. The experiment is classed as biochemical. (An ELISA detects its analyte on a solid surface through an enzyme-linked reagent.)

In the case of `CN(C)CCOc1ccc(-c2nc(-c3ccncc3)c(-c3ccc4c(c3)CC/C4=N\O)[nH]2)cc1` [SB-590885], the IC50 (as a rule, the concentration that inhibits the measured activity by half) turned out to be 0.11 nM. This lies in the sub-nanomolar range.
